{"source": "the NIST ThermoML archive (doi:10.1016/j.tca.2010.05.009)", "assay": "Molar enthalpy of transition or fusion", "conditions": "Crystal; Differential scanning calorimeter", "note": "± gives the expanded uncertainty stated by the source."}
{"smiles": "CC(C)Cc1ccc(C(C)C(=O)O)cc1", "note": "(stereo unspecified) [ibuprofen]", "values": [{"measurement": "Molar enthalpy of transition or fusion", "value": "6.21 ± 0.741", "unit": "kcal/mol"}]}
